Experimental data taken from patent US20210290788A1, “RADIOIMMUNOCONJUGATES AND DNA DAMAGE AND REPAIR INHIBITOR COMBINATION THERAPY” (Fusion Pharmaceuticals Inc., priority 2018, published 2021).

Tests used:
[1] = BAY-1895344 three times a week starting with 40 mg/kg; dose gradually reduced to 20 mg/kg
[2] = tested on: Colo-205 (colorectal cancer) xenograft model; assay: Example 1 in vivo synergy study, dosing schedule 1, Colo-205 xenograft; details: [225Ac]-FPI-1434 50 nCi, BAY-1895344 20 mg/kg i.p. 2 days on, 5 days off for 28 days, first dose 24 hours after FPI-1434, up to 28 days
[3] = tested on: Colo-205 (colorectal cancer) xenograft model; assay: Example 2 in vivo synergy study, dosing schedule 2, Colo-205 xenograft; details: FPI-1434 50 nCi, BAY-1895344 three times a week, 40 mg/kg gradually reduced to 20 mg/kg, first dose 24 hours after FPI-1434, up to 28 days
[4] = tested on: A549 (NSCLC) xenograft model; assay: Example 1 in vivo synergy study, dosing schedule 1, A549 xenograft; details: [225Ac]-FPI-1434 200 nCi, BAY-1895344 20 mg/kg i.p. 2 days on, 5 days off for 28 days, first dose 24 hours after FPI-1434, up to 28 days

With C[C@@H]1COCCN1c1cc(-c2ccnn2C)c2ccnc(-c3ccn[nH]3)c2n1 [BAY-1895344] the “Adverse observation in animals (somnolence)” value [1] was “transient animal somnolence at the higher doses”, the Relative tumor volume [2] was “did not demonstrate any reduction in reduction in tumor volume over time relative to Vehicle controls” and the Relative tumor volume [3] was “some reduction in tumor volume over time”. For the same compound, the Relative tumor volume [4] was “did not demonstrate any reduction in reduction in tumor volume over time relative to Vehicle controls”.
